Laboratory results: PubChem BioAssay AID1776 (NMMLSC, 2009)
The list shows a part of the results, in another mix than the full data. The source made the active and inactive calls. No stated cut-off is given here; in the data, active means fluorescence above about 89; inactive means the rest.

test: green autofluorescence of compounds with GSH beads – biophysical, 488/530 nm, flow cytometry, artefact control, profiling panel (AID 1776); conditions: compound fluorescence 488/530 nm, at 10 µM, active compounds read high;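 further: glutathione beads carrying GST-tagged Bcl family fusion proteins plus one bare bead set; values are compound well signal with DMSO vehicle wells as background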

SMILES	fluorescence (KMESF)
c1nnnn1CCn1cnnn1	inactive: 29
CC(C)C(=O)NC(Sc1ccccc1)C(Cl)(Cl)Cl (centres undefined)	inactive: 17
O=P(Nc1nccs1)(c1ccccc1)c1ccccc1	inactive: 27
C(Cc1nn[nH]n1)Cc1nn[nH]n1	inactive: 11
O=C(OC1CN2CCC1CC2)c1cccc(Cl)c1 (centres undefined)	inactive: 24
CC(=O)NC(SC(=S)N(C)C)C(Cl)(Cl)Cl (centres undefined)	inactive: 24
O=P(Nc1ccccn1)(c1ccc(Br)cc1)c1ccc(Br)cc1	inactive: 15
O=c1c2cc([N+](=O)[O-])ccc2[nH]c2c([N+](=O)[O-])cc([N+](=O)[O-])cc12	inactive: 10
Cc1ccc(OP(=O)(Nc2ccccn2)Oc2ccc(C)cc2)cc1	inactive: 12
CC(=O)NC(SC(=S)N(CC(C)C)CC(C)C)C(Cl)(Cl)Cl (centres undefined)	inactive: 24
COC(=O)c1cc2c(s1)N=C(c1ccccc1)N(C)P2(=O)N1CCOCC1 (centres undefined)	inactive: 23
CCC(=O)N1C2C3N(C(=O)CC)C1C1N(C(=O)CC)C(C(N1C(=O)CC)N3C(=O)CC)N2C(=O)CC	inactive: 16
CCNC(=S)/N=C(\N)N[N+](=O)[O-]	inactive: 21
O=C(NC1CCS(=O)(=O)C1)NP(=S)(Oc1ccccc1)Oc1ccccc1 (centres undefined)	inactive: 16
CCOC(=O)NC(Sc1ccccc1)C(Cl)(Cl)Cl (centres undefined)	inactive: 13
c1ccc(-c2nn[nH]n2)c(-c2nn[nH]n2)c1	inactive: 9
CC(=O)Nc1ccc(Oc2c([N+](=O)[O-])cc([N+](=O)[O-])cc2[N+](=O)[O-])cc1	inactive: 17
CC(C)(C)C(=O)NC(Sc1ccccc1)C(Cl)(Cl)Cl (centres undefined)	inactive: 12
CCOc1ccc(C2=NCC(CBr)S2)cc1 (centres undefined)	inactive: 26
O=P1(Nc2nc3ccc(Cl)cc3s2)COc2ccccc2O1 (centres undefined)	inactive: 6
CC(C)CC(=O)NC(Sc1ccc(Cl)cc1)C(Cl)(Cl)Cl (centres undefined)	inactive: 55
Cc1c2non([O-])c-2c(C)[n+](=O)[n+]1[O-]	inactive: 45
O=C(NC(Sc1ccncn1)C(Cl)(Cl)Cl)c1ccccc1 (centres undefined)	inactive: 10
Oc1ccccc1CNc1ccccn1	inactive: 26
COc1ccccc1OP(=O)(Nc1ccc(C)cn1)Oc1ccccc1OC	inactive: 13
Clc1ccc(Cl)c(NC2=NCC(CBr)S2)c1 (centres undefined)	inactive: 24
CN1CCCC(OC(=O)C(c2ccccc2)c2ccccc2)C1 (centres undefined)	inactive: 14

SMILES	fluorescence (KMESF)
NC(=O)c1cc([N+](=O)[O-])cc([N+](=O)[O-])c1N	inactive: 10
Cc1ccc(N/C(=N/P(=O)(N2CCOCC2)N2CCOCC2)N2CCOCC2)cc1	inactive: 72
CCN(N=Nc1nonc1N)c1nonc1N	inactive: 16
CCOP(=O)(Nc1ccccc1)OCC	inactive: 12
Cc1cc(SC(NC(=O)c2ccc(F)cc2)C(Cl)(Cl)Cl)ncn1 (centres undefined)	inactive: 18
O=[N+]([O-])c1ncn(CCn2ncnc2[N+](=O)[O-])n1	inactive: 16
CN(C)C(=O)OCCc1n(C)cc[n+]1C	inactive: 8
CC(C)=N/N=C(\N)N[N+](=O)[O-]	inactive: 18
CC1CCN(C(=O)Oc2c(Cl)cc(Cl)c3cccnc23)CC1	inactive: 10
CCN(/C(=N/P(=O)(N1CCOCC1)N1CCOCC1)N1CCOCC1)c1ccc(OC)cc1	inactive: 13
O=[N+]([O-])c1cccc2n[nH]nc12	inactive: 51
CC(=O)N1C2C3N(C(C)=O)C1C1N(C(C)=O)C(C(N1C(C)=O)N3C(C)=O)N2C(C)=O	inactive: 24
CCc1nc2c(n1)c1c(non1O)c1c2no[n+]1[O-]	inactive: 8
O=[N+]([O-])c1cc([N+](=O)[O-])c(CCNc2ccccc2)c([N+](=O)[O-])c1	inactive: 13
Cc1ccc(NP(=O)(Oc2ccccc2)Oc2ccccc2)nc1	inactive: 9
COc1ccc(C2=NCC(CBr)S2)cc1 (centres undefined)	inactive: 13
CCC(C)N(CC(C)C)C(=S)SC(NC(C)=O)C(Cl)(Cl)Cl (centres undefined)	inactive: 21
O=C(COc1ccccc1)OC1CN2CCC1CC2 (centres undefined)	inactive: 21
COP1(=S)c2c(C)nn(CCC#N)c2N=C(c2ccc(F)cc2)N1C (centres undefined)	inactive: 26
O=P(Nc1ccccn1)(c1cccc2ccccc12)c1cccc2ccccc12	inactive: 18
Cc1cc(SC(NC=O)C(Cl)(Cl)Cl)ncn1 (centres undefined)	inactive: 16
Cc1cc(SC(NC(=O)c2ccccc2)C(Cl)(Cl)Cl)nc(C(C)C)n1 (centres undefined)	inactive: 10
O=[N+]([O-])c1cc([N+](=O)[O-])c(-c2ccn[nH]2)s1	inactive: 15
CCN(CC)C(=S)SC(NC=O)C(Cl)(Cl)Cl (centres undefined)	inactive: 10
CC(C)NC(=O)NP(=O)(Oc1ccccc1)Oc1ccccc1	inactive: 15
ClCCSc1nnc(-c2cccnc2)o1	inactive: 29
Cc1ccc2nc3c(c(C)c2c1)CC(C(Cl)Cl)S3 (centres undefined)	inactive: 20

SMILES	fluorescence (KMESF)
COc1ccc(N/C(=N/P(=O)(N2CCOCC2)N2CCOCC2)N2CCOCC2)cc1	inactive: 9
COc1ccc2nc(NP(=O)(c3ccccc3)c3ccccc3)sc2c1	inactive: 10
Cc1cc(=O)[nH]c(N[N+](=O)[O-])n1	inactive: 14
O=C(OC1CN2CCC1CC2)C12CC3CC(CC(C3)C1)C2 (centres undefined)	inactive: 25
Cc1c2c(nc3ccccc13)SC(C(Cl)Cl)C2 (centres undefined)	inactive: 9
CCOP(=O)(Nc1cccc2ccccc12)OCC	inactive: 19
COc1cc(C2NCCC3(OCCO3)C2(C)C)cc(OC)c1OC (centres undefined)	inactive: 10
Cc1ccc(NCCc2c([N+](=O)[O-])cc([N+](=O)[O-])cc2[N+](=O)[O-])cc1	inactive: 8
Cc1cccc(OCC(=O)OC2CN3CCC2CC3)c1 (centres undefined)	inactive: 10
COc1cc(C(=O)NCC2(N3CCOCC3)CCCCC2)cc(Cl)c1OC(C)C	inactive: 11
O=[N+]([O-])c1ccc2c(c1)nnn2O	inactive: 57
CCOP1(=S)c2c(C)nn(CCC#N)c2N=C(c2ccc(F)cc2)N1C (centres undefined)	inactive: 34
O=P(Nc1nccs1)(c1ccccc1)c1nc2ccccc2s1 (centres undefined)	inactive: 23
O=P(Nc1nccs1)(Oc1ccccc1)Oc1ccccc1	inactive: 14
CCOP1(=S)c2c(C)nn(CCC#N)c2N=C(c2ccccc2F)N1C (centres undefined)	inactive: 25
O=P1(Nc2ccc(Br)cn2)COc2ccccc2OC1	inactive: 5
Cc1ccc(OCC(=O)OC2CN3CCC2CC3)cc1 (centres undefined)	inactive: 52
O=P1(Nc2ncccn2)COc2ccccc2OC1	inactive: 29
CN(C)C1(CNC(=O)c2ccc(S(C)(=O)=O)cc2)CCCCC1	inactive: 22
CC1CCC(C(C)C)C(OP(=O)(Nc2ccccn2)c2ccccc2)C1 (centres undefined)	inactive: 20
Cc1nn(-c2ccccc2)c2c1P(=O)(N1CCOCC1)N(C)C(c1ccccc1)=N2 (centres undefined)	inactive: 21
CC(C)/C=N\N=C(\N)N[N+](=O)[O-]	inactive: 12
CN(C(=O)Cc1ccc(Cl)c(Cl)c1)[C@@H]1CCCC[C@H]1N1CCCC1	inactive: 66
Clc1n[nH]nc1-c1nn[nH][15n]1	inactive: 26
O=P1(Nc2ccccn2)COc2ccccc2OC1	inactive: 30
